{"source": "ChEMBL document CHEMBL4017505", "about": "(J Med Chem, 2017)", "tested_on": "Mus musculus", "assay": "Toxicity in CD-1 mouse assessed as motor impairment at 5 to 10 mg/kg, sc treated 30 mins prior to test by rotarod test", "conditions": "in vivo, 0.5 h", "data": [{"smiles": "CN(C(=O)Cc1ccc(Cl)c(Cl)c1)C1CCCCC1N1CCCC1", "note": "(stereo unspecified)", "values": [{"measurement": "Activity", "value": "Toxic"}]}]}
